Measured values: PMC10060303

Tests used:
[1] = tested on: blood platelets; assay: Light transmission aggregometry (LTA), platelet aggregation in platelet-rich plasma; details: PRP
[2] = tested on: blood platelets; assay: Impedance aggregometry (Multiplate), platelet aggregation in whole blood
[3] = tested on: blood platelets; details: citrate-anticoagulated blood, ADP 6.5 μM; cited from earlier work
[4] = tested on: blood platelets; assay: Flow cytometry of platelet activation (CD62P-positive platelets); details: ADP 10 µM, n = 6

CCCCC[C@H](O)/C=C/[C@H]1[C@H](O)CC(=O)[C@@H]1CCCCCCC(=O)O
decrease of platelet aggregation induced by ADP ([1]; PGE1 0.1 µM, 1 min preincubation, ADP 5 µM): 70%

CNC[C@H](O)c1ccc(O)c(O)c1
increase of AUC compared to control ([2]; adrenaline 10 µM + ADP 2 µM vs ADP alone): 60%

Nc1ncnc2c1ncn2[C@@H]1O[C@H](COP(=O)(O)OP(=O)(O)O)[C@@H](O)[C@H]1O
mean platelet aggregation [3]: 68.6 U
platelet activation (CD62P-positive platelets) ([4]; PRP): 40.7 ± 10.1%
platelet activation (CD62P-positive platelets) ([4]; blood): 29.7 ± 11.9%
platelet activation (CD62P-positive platelets) ([4]; isolated platelets): 27.0 ± 16.9%
fold lower mean platelet aggregation with 2 μM ADP than with 5 μM ADP [2]: over 1.3 fold
increase of platelet aggregation over the non-activated platelets ([2]; ADP 2 µM): four-fold increase
mean platelet aggregation (AUC) ([2]; ADP 5 µM, n = 12): 52.2 ± 6.4 U
AUC, control sample ([1]; ADP 5 µM alone): 512.9 ± 237.7 U
Amax, control sample ([1]; ADP 5 µM alone): 63.0 ± 19.2%
platelet aggregation in response to increasing ADP concentrations ([1]; ADP 0.1‒20 µM, n = 5): 2 to 91%
EC50 ([1]; read-out: EC50 of ADP-induced platelet aggregation, ADP alone, 0.1‒20 µM): 1500 nM
